Data from ChEMBL document CHEMBL1126158, “Conformational analyses and molecular-shape comparisons of a series of indanone-benzylpiperidine inhibitors of acetylcholinesterase” (J Med Chem, 1992).

Chains of the proteins cited; added tags and fusions are not shown. Lines headed by an entry give the natural chain unless they say otherwise; changes in a name come on top.
UniProt P22303: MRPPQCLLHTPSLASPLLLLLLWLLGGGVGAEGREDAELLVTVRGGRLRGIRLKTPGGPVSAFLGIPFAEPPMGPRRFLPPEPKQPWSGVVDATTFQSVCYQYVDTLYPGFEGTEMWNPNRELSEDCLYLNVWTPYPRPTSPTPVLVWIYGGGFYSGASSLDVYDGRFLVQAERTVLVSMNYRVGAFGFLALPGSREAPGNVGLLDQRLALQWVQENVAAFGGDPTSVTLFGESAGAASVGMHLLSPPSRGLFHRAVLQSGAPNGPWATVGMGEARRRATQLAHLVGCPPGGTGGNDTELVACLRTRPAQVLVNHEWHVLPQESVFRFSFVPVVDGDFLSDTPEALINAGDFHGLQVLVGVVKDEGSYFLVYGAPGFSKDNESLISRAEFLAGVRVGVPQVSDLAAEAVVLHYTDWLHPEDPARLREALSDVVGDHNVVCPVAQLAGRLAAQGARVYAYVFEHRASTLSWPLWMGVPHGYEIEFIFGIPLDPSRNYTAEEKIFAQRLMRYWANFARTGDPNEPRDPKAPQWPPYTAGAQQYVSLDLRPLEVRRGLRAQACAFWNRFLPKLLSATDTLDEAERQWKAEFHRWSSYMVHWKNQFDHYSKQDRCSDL

Molecular target: Acetylcholinesterase (Homo sapiens, UniProt P22303)
Assay: Inhibition of acetylcholinesterase activity

In the case of `CN1CCC(CC2=Cc3ccccc3C2)CC1`, the IC50 is reported as 4.4 µM.
